Reference: PubChem BioAssay AID588334 (Broad Institute, 2011)
The list shows a part of the results, in another mix than the full data. The source made the active and inactive calls.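 Rule for the calls: active = mean activation of at least 80% with every replicate also reaching 80%; inconclusive = mean reaches 80% but some replicate falls short; inactive = the rest.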

Assay: MITF-driven TRPM1 luciferase induction in melanoma cells – cell-based, SK-MEL-5, single point, primary screen (AID 588334);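 note: 0% = neutral control wells and 100% = parthenolide positive control wells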
Conditions: SK-MEL-5 TRPM1-promoter luciferase, 24 h; at 12.5 µM; active compounds read high; % of positive control, neutral wells = 0

Q: Which activation does the source give for `CCC(=O)N(c1ccccc1)C1(COC)CCN(CCc2cccs2)CC1` here?
A: inactive: 3.6%

Q: Which activation does the source give for `CCC(=O)N(c1ccccc1)C1(COC)CCN(CCn2nnn(CC)c2=O)CC1` here?
A: inactive: -2.45%
